Assay results: US20120015925A1, “NOVEL BENZOTHIAZEPINE AND BENZOTHIEPINE COMPOUNDS” (ASAHI KASEI PHARMA CORPORATION, priority 2004, published 2012)

Sequences of proteins named here, by UniProt entry; tags and fusion partners are left off.
UniProt Q12908, whole entry: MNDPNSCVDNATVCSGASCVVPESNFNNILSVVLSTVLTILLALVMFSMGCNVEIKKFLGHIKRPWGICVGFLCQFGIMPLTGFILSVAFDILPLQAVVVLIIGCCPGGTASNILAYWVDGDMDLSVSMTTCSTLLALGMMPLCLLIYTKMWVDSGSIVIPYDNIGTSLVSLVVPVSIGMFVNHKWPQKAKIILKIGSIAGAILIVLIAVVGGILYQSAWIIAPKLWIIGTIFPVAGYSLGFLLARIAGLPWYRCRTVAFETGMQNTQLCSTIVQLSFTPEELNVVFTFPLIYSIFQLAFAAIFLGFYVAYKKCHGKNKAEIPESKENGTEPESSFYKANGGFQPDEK

What was measured:
[1] = system: rats dosed cholic acid; assay: Lowering effect on bile acid concentrations in portal vein blood in rats dosed cholic acid
[2] = system: Caco-2 cell; assay: Gastrointestinal toxicity: cytotoxicity against Caco-2 cell (LDH activity); conditions: 2 hours, LDH activity in medium relative to cell lysis agent = 100%
[3] = target: human IBAT (Homo sapiens, UniProt Q12908); assay: In vitro assay using Cos 7 cells, transiently expressed human IBAT; assay type: cell-based; conditions: read-out: Cos 7/human IBAT IC50; [3H]-taurocholate 8 μM uptake, 37° C., 60 minutes
[4] = 0.3 mg/kg oral with cholic acid 200 mg/kg, portal vein serum total bile acid 2 hours after, control = 100%, surfactant HCO-60 (##)
[5] = 0.1 mg/kg oral, surfactant HCO-60 0.1%, cholic acid 200 mg/kg, portal vein blood 2 hours after administration

SMILES: CCCCC1(CCCC)CS(=O)(=O)c2ccc(N(C)C)cc2C(c2cccc(NC(=S)Nc3ccc(CC[N+]45CCC(CC4)CC5)cc3)c2)N1 (centres unmarked)
BILE ACID REDUCTION RATE (%) IN RAT MODEL WITH CHOLIC ACID LOADING [1, 4]: 40%
CELL TOXICITY AGAINST Caco2 3 μM [2]: <1%
CELL TOXICITY AGAINST Caco2 10 μM [2]: <1%
CELL TOXICITY AGAINST Caco2 30 μM [2]: <1%

SMILES: CCCCC1(CCCC)CS(=O)(=O)c2ccc(N(C)C)cc2C(c2cccc(NC(=S)Nc3ccc(CC[N+](C)(C)Cc4ccccc4)cc3)c2)N1 (centres unmarked)
BILE ACID REDUCTION RATE (%) IN RAT MODEL WITH CHOLIC ACID LOADING [1, 4]: 39%
CELL TOXICITY AGAINST Caco2 3 μM [2]: <1%
CELL TOXICITY AGAINST Caco2 10 μM [2]: <1%
CELL TOXICITY AGAINST Caco2 30 μM [2]: <1%

SMILES: CCCCC1(CCCC)CS(=O)(=O)c2ccc(N(C)C)cc2C(c2cccc(NC(=S)Nc3cccc(C[N+]4(Cc5ccccc5)CCC(CCO)CC4)c3)c2)N1 (centres unmarked)
BILE ACID REDUCTION RATE (%) IN RAT MODEL WITH CHOLIC ACID LOADING [1, 5]: 22%

IC50 [3]: 43 nM
SMILES: CCCCC1(CCCC)CS(=O)(=O)c2ccc(N(C)C)cc2C(c2cccc(NC(=S)Nc3cccc(C[N+]4(Cc5ccccc5)CCC(NC(=O)OC(C)(C)C)C4)c3)c2)N1 (centres unmarked)

SMILES: CCCCC1(CCCC)CS(=O)(=O)c2ccc(N(C)C)cc2C(c2cccc(NC(=S)Nc3cccc(C[N+]45CCC(CC4)CC5)c3)c2)N1 (centres unmarked)
BILE ACID REDUCTION RATE (%) IN RAT MODEL WITH CHOLIC ACID LOADING [1, 5]: 37%

IC50 [3]: 61 nM
SMILES: CCCCC1(CCCC)CS(=O)(=O)c2ccc(N(C)C)cc2C(c2cccc(NC(=S)Nc3cccc(C[N+]4(Cc5ccccc5)CCC(NC(C)=O)C4)c3)c2)N1 (centres unmarked)

SMILES: CCCCC1(CCCC)CS(=O)(=O)c2ccc(N(C)C)cc2C(c2cccc(NC(=S)NCCCCC[N+](C)(C)Cc3ccccc3)c2)N1 (centres unmarked)
BILE ACID REDUCTION RATE (%) IN RAT MODEL WITH CHOLIC ACID LOADING [1, 5]: 18%

SMILES: CCCCC1(CCCC)CS(=O)(=O)c2ccc(N(C)C)cc2C(c2cccc(NC(=S)Nc3cccc(C[N+]4(Cc5ccccc5)CCC(CO)CC4)c3)c2)N1 (centres unmarked)
BILE ACID REDUCTION RATE (%) IN RAT MODEL WITH CHOLIC ACID LOADING [1, 5]: 17%

One block for each molecule: values may come before it.
